Experimental data: article PMC3108608 (2011)

Amino acid sequences for entries named in this document (tags omitted). Residues count along the entry.
UniProt P05979, 25-600: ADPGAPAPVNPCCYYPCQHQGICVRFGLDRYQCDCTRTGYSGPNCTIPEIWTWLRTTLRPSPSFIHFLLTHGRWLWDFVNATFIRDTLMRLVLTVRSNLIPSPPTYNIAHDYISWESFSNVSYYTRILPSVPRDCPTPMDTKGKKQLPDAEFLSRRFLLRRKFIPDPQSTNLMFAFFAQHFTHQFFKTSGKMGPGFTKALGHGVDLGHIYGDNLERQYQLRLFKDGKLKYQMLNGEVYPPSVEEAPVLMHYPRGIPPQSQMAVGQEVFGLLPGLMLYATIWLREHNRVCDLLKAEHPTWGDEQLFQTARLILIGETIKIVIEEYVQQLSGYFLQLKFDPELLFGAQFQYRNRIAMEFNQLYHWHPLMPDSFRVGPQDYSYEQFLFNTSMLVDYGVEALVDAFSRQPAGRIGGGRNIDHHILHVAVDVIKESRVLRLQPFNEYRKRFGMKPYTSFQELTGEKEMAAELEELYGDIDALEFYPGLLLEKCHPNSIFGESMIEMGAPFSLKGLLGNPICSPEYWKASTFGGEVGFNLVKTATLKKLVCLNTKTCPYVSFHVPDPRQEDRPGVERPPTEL
UniProt P35354, 18-604: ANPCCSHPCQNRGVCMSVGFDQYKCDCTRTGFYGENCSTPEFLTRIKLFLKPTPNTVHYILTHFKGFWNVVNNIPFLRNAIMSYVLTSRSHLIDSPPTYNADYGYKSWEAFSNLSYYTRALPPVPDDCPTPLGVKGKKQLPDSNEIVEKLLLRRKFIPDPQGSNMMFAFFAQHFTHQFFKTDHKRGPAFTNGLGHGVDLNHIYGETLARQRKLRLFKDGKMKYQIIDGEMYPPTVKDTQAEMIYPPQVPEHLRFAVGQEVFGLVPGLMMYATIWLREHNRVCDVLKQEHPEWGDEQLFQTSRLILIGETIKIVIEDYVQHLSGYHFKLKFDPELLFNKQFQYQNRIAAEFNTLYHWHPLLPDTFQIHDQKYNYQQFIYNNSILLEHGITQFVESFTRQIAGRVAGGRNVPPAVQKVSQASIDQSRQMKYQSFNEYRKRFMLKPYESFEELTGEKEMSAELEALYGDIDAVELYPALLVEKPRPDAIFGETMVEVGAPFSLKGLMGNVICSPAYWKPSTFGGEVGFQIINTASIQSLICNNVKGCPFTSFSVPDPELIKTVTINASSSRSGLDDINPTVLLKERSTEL

Assays:
[1] = tested on: PGE2 formation in LPS-stimulated human whole blood; experiment: PGE2 formation in LPS-stimulated human whole blood; type: cell-based
[2] = tested on: 6-keto PGF1α formation in LPS-stimulated human whole blood; experiment: 6-keto PGF1α formation in LPS-stimulated human whole blood; type: cell-based; details: 5 h, read-out: 6-keto PGF1α formation, failed to suppress up to
[3] = tested on: TXB2 formation in LPS-stimulated human whole blood; experiment: TXB2 formation in LPS-stimulated human whole blood; type: cell-based; details: 5 h, read-out: TXB2 formation, failed to suppress up to
[4] = tested on: 12-HHT formation (mainly derived from platelet COX-1) in human whole blood; experiment: 12-HHT formation in human whole blood (A23187 plus AA); type: cell-based; details: 10 min, read-out: 12-HHT formation, failed to suppress up to
[5] = tested on: carrageenan-induced pleurisy; experiment: Carrageenan-induced pleurisy in rats; type: in vivo, rat; details: 4 h after carrageenan
[6] = tested on: PGE2 formation from exogenous AA in human whole blood; details: LPS 16 h pre-stimulation, 20 μM AA
[7] = human, in vivo, po; cited from earlier work
[8] = target: purified ovine COX-1 (Ovis aries, UniProt P05979); experiment: biochemical
[9] = target: human recombinant COX-2 (Homo sapiens, UniProt P35354); experiment: biochemical
[10] = tested on: PGE2 formation from exogenous AA in human whole blood; experiment: tissue or blood; details: read-out: IC50 of PGE2 formation
[11] = tested on: 6-keto PGF1α formation from exogenous AA in human whole blood; experiment: tissue or blood; details: 16 h, read-out: 6-keto PGF1α formation, not significantly affected up to

Q: For CC(C)=CCCC1(C)C(CC=C(C)C)CC2(CC=C(C)C)C(=O)C1(C(=O)C(C)C)C(=O)C(CC=C(C)C)=C2O (centres unmarked) [Hyp, Hyperforin], which inhibition at 1 µM ([1]; Homo sapiens, 5 h, read-out: inhibition of PGE2 formation) is on record?
A: Its inhibition at 1 µM is 25 ± 3%.

Q: What about the IC50 ([1]; Homo sapiens, read-out: apparent IC50 of PGE2 formation) of the same compound?
A: Its IC50 is ~3 µM.

Q: What about the “residual PGE2 formation” value ([1]; LPS-stimulated whole blood, maximal effect) of the same compound?
A: Its value is “approx. 50 % of vehicle control”.

Q: And the IC50 [2]?
A: Its IC50 is > 30 µM.

Q: And the IC50 [3]?
A: Its IC50 is > 30 µM.

Q: And the IC50 [4]?
A: Its IC50 is > 30 µM.

Q: And the “attenuation of cell infiltration” value ([5]; Hyp 4 mg kg^−1 i.p., indomethacin 5 mg kg^−1)?
A: The value was 50%.

Q: And the Exudate volume ([5]; i.p. 30 min before, Hyperforin 4 mg kg^−1, Indomethacin 5 mg kg^−1, vehicle 0.44 ± 0.04)?
A: Its Exudate volume is 0.16 ± 0.05 mL.

Q: And the “concentration at which inhibition of PGE2 formation reaches significance” value [6]?
A: The value was 30 nM.

Q: What about the steady-state concentration [7] of the same compound?
A: The steady-state concentration was 0.28 µM.

Q: What about the IC50 [8] of the same compound?
A: Its IC50 is 12 µM.

Q: And the IC50 [9]?
A: Its IC50 is > 30 µM.

Q: What about the IC50 [10] of the same compound?
A: Its IC50 is 0.25 µM.

Q: What about the IC50 [11] of the same compound?
A: The IC50 was > 30 µM.
